Data: patent US9242996B2 (Novartis AG, priority 2013, dated 2016)

Chains of the proteins cited; added tags and fusions are not shown.
UniProt P28482, whole entry: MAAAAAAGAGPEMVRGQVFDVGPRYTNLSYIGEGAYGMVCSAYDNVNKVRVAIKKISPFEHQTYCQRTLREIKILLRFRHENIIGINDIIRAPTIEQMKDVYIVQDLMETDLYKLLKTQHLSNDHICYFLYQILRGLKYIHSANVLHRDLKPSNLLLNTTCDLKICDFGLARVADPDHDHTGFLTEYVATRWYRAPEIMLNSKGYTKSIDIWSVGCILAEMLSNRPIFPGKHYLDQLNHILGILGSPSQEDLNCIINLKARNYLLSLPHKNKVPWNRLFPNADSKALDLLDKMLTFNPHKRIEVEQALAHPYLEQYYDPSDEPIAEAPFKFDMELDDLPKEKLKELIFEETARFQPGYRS

Key:
Format in all cases: biochemical
activated ERK2 [1] = target: T1, activated ERK2 (Homo sapiens (Human), UniProt P28482); assay: Activated ERK2 (20 pM) Kinase Assay (AlphaScreen, ERKtide phosphorylation); conditions: 0.02 nM ERK2, 400 nM ERKtide peptide, 35 μM ATP, 30 min preincubation
Method: Activated ERK2 (20 pM) Kinase Assay:
Compound potency against activated ERK2 was determined using a kinase assay that measures ERK2-catalyzed phosphorylation of biotinylated ERKtide peptide substrate ([Biotin]-AH[…]-[NH2], the peptide sequence derived from EGF receptor: SEQ ID NO:1). The assay was carried out in 20 mM HEPES [pH 7.5], 5 mM MgCl2, 1 mM DTT, 0.01% Tween-20, 0.05% BSA using 0.02 nM ERK2, 400 nM ERKtide peptide and 35 μM ATP (all concentrations are final in the reaction) in a total volume of 10.25 μL. […] Compound dilution series were prepared in 100% DMSO. ERK2 was preincubated with compounds for 30 minutes at ambient temperature. Reaction was initiated by addition of a substrate cocktail of ERKtide peptide and ATP and was allowed to proceed for 4 hours at ambient temperature. Reaction was terminated by addition of 10 μL of a 2× stop buffer consisting of 100 mM Tris-Cl [pH 7.5], 25 mM EDTA, 0.01% Tween 20, 20 μg/mL of AlphaScreen Protein A Acceptor Beads, 20 μg/mL of Streptavidin Donor Beads (PerkinElmer, Waltham, Mass.), and 1:1000 dilution phospho-EGF Receptor (Thr669) antibody (Cat #8808, Cell Signaling Technology, Danvers, Mass.). Terminated reactions were read, after overnight incubation in the dark, on an EnVision Multilabel Plate Reader (PerkinElmer, Waltham, Mass.), with excitation and emission wavelengths set to 680 nm and 570 nm, respectively. IC50 values were determined using a four-parameter fit.

activated ERK2 [2] = target: T1, activated ERK2; assay: Activated ERK2 kinase assay, ERK2 New conditions (AlphaScreen, ERKtide phosphorylation); conditions: 0.25 nM ERK2, 200 nM ERKtide peptide, 35 μM ATP, 30 min preincubation
Method: The following assay conditions (ERK2 New) were used for some compounds in the following Table, and provide substantially similarIC50s to the assay described above, for IC50 about 0.1 μM or above. […]
Compound potency against activated ERK2 is determined using a kinase assay that measures ERK2-catalyzed phosphorylation of biotinylated ERKtide peptide substrate ([Biotin]-AH[…]-[NH2], the peptide sequence derived from EGF receptor: SEQ ID NO:1). The assay is carried out in 50 mM HEPES [pH 7.5], 5 mM MgCl2, 1 mM DTT, 0.01% Tween-20, 0.05% BSA using 0.25 nM ERK2, 200 nM ERKtide peptide and 35 μM ATP (all concentrations are final in the reaction) in a total volume of 10.25 μL. […] Compound dilution series are prepared in 100% DMSO. ERK2 is preincubated with compounds for 30 minutes at ambient temperature. Reaction is initiated by addition of a substrate cocktail of ERKtide peptide and ATP and is allowed to proceed for 2-3 hours at ambient temperature. Reaction is terminated by addition of 10 μL of a 2× stop buffer consisting of 100 mM Tris-Cl [pH 7.5], 25 mM EDTA, 0.01% Tween 20, 10 μg/mL of AlphaScreen Protein A Acceptor Beads, 10 μg/mL of Streptavidin Donor Beads (PerkinElmer, Waltham, Mass.), and 1.4 μg/mL phospho-EGF Receptor (Thr669) antibody (Cat #3056, Cell Signaling Technology, Danvers, Mass.). Terminated reactions are read, after overnight incubation in the dark, on an EnVision Multilabel Plate Reader (PerkinElmer, Waltham, Mass.), with excitation and emission wavelengths set to 680 nm and 570 nm, respectively. IC50 values are determined using a four-parameter fit.

ERK2 = ERK2 (Homo sapiens (Human), UniProt P28482); assay: ERK2 Alphascreen

IC50 (activated ERK2 [1]) | IC50 (activated ERK2 [2]) | IC50 (ERK2) | Compound
13.2 nM | 18.2 nM | – | C[C@@H](NC(=O)c1ccc(-c2cc([C@@H]3CCN(C)C(=O)C3)cnc2N)cc1F)c1cccc(Cl)c1 [Example 33, 4-(2-amino-5-((R)-1-methyl-2-oxopiperidin-4-yl)pyridin-3-yl)-N—((R)-1-(3-chlorophenyl)ethyl)-2-fluorobenzamide]
– | 26.6 nM | – | CS(=O)(=O)c1cc(Cl)cc(CNC(=O)c2ccc(-c3nc(C4CC4)cnc3N)cc2F)c1 [Example 285, 4-(3-amino-6-cyclo-propylpyrazin-2-yl)-N-(3-chloro-5-(methylsulfonyl)benzyl)-2-fluorobenzamide]
– | 0.282 nM | – | COC(=O)N[C@H]1CC[C@H](c2cnc(N)c(-c3ccc(C(=O)N[C@H](CO)c4cccc(Cl)c4)c(F)c3)n2)CC1 [Example 195, methyl ((1S,4r)-4-(5-amino-6-(4-(((S)-1-(3-chlorophenyl)-2-hydroxyethyl)carbamoyl)-3-fluorophenyl)pyrazin-2-yl)cyclohexyl)carbamate]
0.0547 nM | 0.169 nM | – | Cn1nncc1-c1cnc(N)c(-c2ccc(C(=O)N[C@H](CO)c3cc(F)cc(Cl)c3)c(F)c2)c1 [Example 302, (S)-4-(2-amino-5-(1-methyl-1H-1,2,3-triazol-5-yl)pyridin-3-yl)-N-(1-(3-chloro-5-fluorophenyl)-2-hydroxyethyl)-2-fluorobenzamide]
0.0345 nM | 0.129 nM | – | CS(=O)(=O)c1cccc([C@@H](CO)NC(=O)c2ccc(-c3nc(C4CCOCC4)cnc3N)cc2F)c1 [Example 308, (S)-4-(3-amino-6-(tetrahydro-2H-pyran-4-yl)pyrazin-2-yl)-2-fluoro-N-(2-hydroxy-1-(3-(methylsulfonyl)phenyl)ethyl) benzamide]
0.0651 nM | 0.187 nM | – | Nc1ncc(C2CCCCC2)nc1-c1ccc(C(=O)N[C@H](CO)c2cccc(Cl)c2)c(F)c1 [Example 422, (S)-4-(3-amino-6-cyclo-hexylpyrazin-2-yl)-N-(1-(3-chlorophenyl)-2-hydroxyethyl)-2-fluorobenzamide]
0.363 nM | 0.929 nM | – | Nc1ncc([C@H]2CC[C@H](NC(=O)CO)CC2)nc1-c1ccc(C(=O)N[C@H](CO)c2cccc(Cl)c2)c(F)c1 [Example 196, 4-(3-amino-6-((1r,4S)-4-(2-hydroxyacetamido)cyclohexyl)pyrazin-2-yl)-N—((S)-1-(3-chlorophenyl)-2-hydroxyethyl)-2-fluorobenzamide]
20.3 nM | – | 37.6 nM | Nc1ncc(C2CCOCC2)cc1-c1ccc(C(=O)N[C@H](CO)c2ccccc2)c(C(F)(F)F)c1 [Example 74, (S)-4-(2-amino-5-(tetrahydro-2H-pyran-4-yl)pyridin-3-yl)-N-(2-hydroxy-1-phenylethyl)-2-(trifluoromethyl)benzamide]
– | 0.487 nM | – | Cc1ncc(-c2cnc(N)c(-c3ccc(C(=O)N[C@H](CO)c4cccc(Cl)c4)c(F)c3)c2)n1C [Example 162, (S)-4-(2-amino-5-(1,2-dimethyl-1H-imidazol-5-yl)pyridin-3-yl)-N-(1-(3-chlorophenyl)-2-hydroxyethyl)-2-fluorobenzamide]
– | 393 nM | – | C[C@@H](O)Cc1cnc(N)c(-c2ccc(C(=O)NCc3ccccc3)c(F)c2)n1 (single isomer, unassigned) [Example 23]
– | – | 80.2 nM | Cc1cccc(CNC(=O)c2ccc(-c3cc(C4CCOCC4)cnc3N)cc2F)n1 [Example 205, 4-(2-amino-5-(tetrahydro-2H-pyran-4-yl)pyridin-3-yl)-2-fluoro-N-((6-methylpyridin-2-yl)methyl)benzamide]
– | 0.0497 nM | – | Cc1nn(C)cc1-c1cnc(N)c(-c2ccc(C(=O)N[C@H](CN)c3cccc(Cl)c3)c(F)c2)c1 [Example 226, (S)—N-(2-amino-1-(3-chlorophenyl)ethyl)-4-(2-amino-5-(1,3-dimethyl-1H-pyrazol-4-yl)pyridin-3-yl)-2-fluorobenzamide]
3.98 nM | 7.13 nM | – | C[C@@H](NC(=O)c1ccc(-c2cc([C@H]3CCN(C)C(=O)C3)cnc2N)cc1F)c1cccc(Cl)c1 [Example 34, 4-(2-amino-5-((S)-1-methyl-2-oxopiperidin-4-yl)pyridin-3-yl)-N—((R)-1-(3-chlorophenyl)ethyl)-2-fluorobenzamide]
– | 1.28 nM | – | Nc1ncc([C@H]2CC[C@@H](O)CC2)nc1-c1ccc(C(=O)N[C@H](CO)c2cccc(Cl)c2)c(F)c1 [Example 418, 4-(3-amino-6-((1s,4R)-4-hydroxy-cyclohexyl)pyrazin-2-yl)-N-((S)-1-(3-chlorophenyl)-2-hydroxyethyl)-2-fluorobenzamide]
– | 3.74 nM | – | CC(C)n1cc(-c2cnc(N)c(-c3ccc(C(=O)N[C@H](CO)c4ccccc4)c(F)c3)n2)cn1 [Example 312, (S)-4-(3-amino-6-(1-isopropyl-1H-pyrazol-4-yl)pyrazin-2-yl)-2-fluoro-N-(2-hydroxy-1-phenylethyl) benzamide]
– | 0.26 nM | – | CS(=O)(=O)N[C@H]1CC[C@H](c2cnc(N)c(-c3ccc(C(=O)N[C@H](CO)c4cccc(Cl)c4)c(F)c3)n2)CC1 [Example 194, 4-(3-amino-6-((1r,4S)-4-(methylsulfonamido)cyclohexyl)pyrazin-2-yl)-N—((S)-1-(3-chlorophenyl)-2-hydroxyethyl)-2-fluorobenzamide]
– | 1.19 nM | – | CS(=O)(=O)c1cc(Cl)cc(CNC(=O)c2ccc(-c3nc(C4CCOCC4)cnc3N)cc2F)c1 [Example 311, 4-(3-amino-6-(tetrahydro-2H-pyran-4-yl)pyrazin-2-yl)-N-(3-chloro-5-(methylsulfonyl)benzyl)-2-fluorobenzamide]
– | 453 nM | – | C[C@H](O)Cc1cnc(N)c(-c2ccc(C(=O)NCc3ccccc3)c(F)c2)n1 (single isomer, unassigned) [Example 24]
– | 91.7 nM | – | Nc1ncc([C@@H]2CC[C@H](O)C2)nc1-c1ccc(C(=O)NCc2ccccc2)c(F)c1 (racemic) [Example 102, (+/−)-4-(3-amino-6-((1R,3S)-3-hydroxycyclopentyl)pyrazin-2-yl)-N-benzyl-2-fluorobenzamide]
0.0928 nM | 0.69 nM | – | Nc1ncc([C@H]2CC[C@H](O)CC2)nc1-c1ccc(C(=O)N[C@H](CO)c2cccc(Cl)c2)c(F)c1 [Example 417, 4-(3-amino-6-((1r,4S)-4-hydroxy-cyclohexyl)pyrazin-2-yl)-N-((S)-1-(3-chlorophenyl)-2-hydroxyethyl)-2-fluorobenzamide]
– | 99.2 nM | – | Cn1cc(-c2cnc(N)c(-c3ccc(C(=O)N[C@@H]4C[C@H]4c4ccccc4)c(F)c3)c2)cn1 [Example 131, 4-(2-amino-5-(1-methyl-1H-pyrazol-4-yl)pyridin-3-yl)-2-fluoro-N-((1R,2S)-2-phenylcyclopropyl)benzamide]
0.561 nM | 1.19 nM | – | CC(=O)N[C@H]1CC[C@H](c2cnc(N)c(-c3ccc(C(=O)N[C@H](CO)c4cccc(Cl)c4)c(F)c3)n2)CC1 [Example 193, 4-(6-((1r,4S)-4-acetamidocyclohexyl)-3-aminopyrazin-2-yl)-N—((S)-1-(3-chlorophenyl)-2-hydroxyethyl)-2-fluorobenzamide]
– | 31.6 nM | – | Nc1ncc([C@@H]2CC[C@@H](O)C2)nc1-c1ccc(C(=O)NCc2ccccc2)c(F)c1 (racemic) [Example 103, (+/−)-4-(3-amino-6-((1R,3R)-3-hydroxycyclopentyl)pyrazin-2-yl)-N-benzyl-2-fluorobenzamide]
– | 3.71 nM | – | Cc1nn(C)c(C)c1-c1cnc(N)c(-c2ccc(C(=O)N[C@H](CO)c3ccccc3)c(F)c2)n1 [Example 249, (S)-4-(3-amino-6-(1,3,5-trimethyl-1H-pyrazol-4-yl)pyrazin-2-yl)-2-fluoro-N-(2-hydroxy-1-phenylethyl) benzamide]
